One assay relates to HCC1954 cells. In words: clonogenicity, HCC1954. The assay is classed as cell-based. The conditions noted are these: approximately 0.1 Bq/cell. How it is done: (§1) Methods: Trastuzumab, dialysed against 50 mM EDTA, washed and recovered in metal-free HEPES buffer, was conjugated with tripodal tris(hydroxypyridinone) (THP) (3.23 mg trastuzumab, 0.8 mM H3THP-Ph-SCN; 260 μL) and purified by size exclusion chromatography (SEC). DOTA-trastuzumab was also prepared similarly. DOTA-trastuzumab was labelled with ^111In chloride at 40°C, pH 5.5 for two hours whereas THP-trastuzumab was labelling with ^67Ga chloride at room temperature, pH 6.5, for 15 minutes. SEC purification was performed when labelling efficiencies were <95%. Radiopharmaceuticals (0.19 MBq/μg) were tested for their internalisation and effects on viability (dye exclusion) and clonogenicity of Her-2-positive (HCC1954) and –negative (MDA-MB-231) cell lines. Microautoradiography of cells in 18% gelatine was also performed.

Assay [1] relates to Her-2-positive (HCC1954) cell line. As to the kind of experiment: cell binding and internalisation, HCC1954. The conditions noted are these: HCC1954 cells; for cell binding uptake: at 4nM; for cell binding percentage: at 100nM. Type of assay: cell-based. Here is the method: as §1
The next assay has as its system MDA-MB-231 cells. In words: cell binding, MDA-MB-231. The assay is classed as cell-based. The note with it: Her-2-negative cell line. Here is the method:
as §1

The test system of assay [2] is HER2-expressing SK-OV-3 cells. As to the kind of experiment: internalization capacity. Type of assay: cell-based. The conditions noted are these: after 2 h.
Assay [3] has as its system HER2-expressing SK-OV-3 cells. As to the kind of experiment: immunoreactive fraction. Type of assay: cell-based.
Assay [4] has as its system HER2-expressing SK-OV-3 cells. In words: IC50 on SK-OV-3 cells. The assay is classed as binding.

As a reminder, the IC50 is the concentration at which inhibition is half-maximal. Higher therefore signals lower potency.

In the case of “^67Ga-THP-trastuzumab: trastuzumab conjugated with tris(hydroxypyridinone) and labelled with 67Ga”, the surviving fraction with HCC1954 cells was 0.38±0.13. In assay [1], this substance showed a proportion internalised of 62.08±1.43%, a cell binding uptake of 10.69±1.32% and a cell binding percentage of 1.15±0.98%. The “binding in MDA-MB-231 cells” value in the assay with MDA-MB-231 cells was less than 0.2%.

Regarding “^89Zr-DFO-cyclo*-trastuzumab: trastuzumab conjugated with DFO-cyclo*-pPhe-NCS and radiolabeled with 89Zr”, the internalization in assay [2] is given as 26.6 ± 1.1%. Also, the immunoreactive fraction in assay [3] was found to be 65%. The substance also gave a concentration for half-maximal inhibition (IC50) in assay [4] of 2.89 nM.

As for “^89Zr-DFO-trastuzumab: trastuzumab conjugated with DFO-pPhe-NCS and radiolabeled with 89Zr [reference compound]”, the internalization in assay [2] is recorded as 22.4 ± 1.5%. This substance yielded an immunoreactive fraction in assay [3] of 61%. The IC50 in assay [4] was 2.93 nM.

In the case of ^111In-DOTA-trastuzumab, in the assay on HCC1954 cells, the surviving fraction was found to be 0.55 ± 0.16. In assay [1], the proportion internalised worked out at 60.78±15.45%, the cell binding uptake came to 6.15±1.64% and the cell binding percentage was determined as 0.83±0.85%. Moreover, the “binding in MDA-MB-231 cells” value with MDA-MB-231 cells is on record as less than 0.2%.

For the origin of these results see paper PMC5954004, “19th European Symposium on Radiopharmacy and Radiopharmaceuticals (ESRR’18)” (EJNMMI Radiopharmacy and Chemistry, 2018).
